Measurements: ChEMBL document CHEMBL3879901, “Substituted isoquinolin-1(2H)-ones, and methods of use thereof” (2012)

Protein sequences, listed by entry. Tags and fused reporters are not part of them. Lines headed by an entry give the natural chain unless they say otherwise; changes in a name come on top.
UniProt O00329: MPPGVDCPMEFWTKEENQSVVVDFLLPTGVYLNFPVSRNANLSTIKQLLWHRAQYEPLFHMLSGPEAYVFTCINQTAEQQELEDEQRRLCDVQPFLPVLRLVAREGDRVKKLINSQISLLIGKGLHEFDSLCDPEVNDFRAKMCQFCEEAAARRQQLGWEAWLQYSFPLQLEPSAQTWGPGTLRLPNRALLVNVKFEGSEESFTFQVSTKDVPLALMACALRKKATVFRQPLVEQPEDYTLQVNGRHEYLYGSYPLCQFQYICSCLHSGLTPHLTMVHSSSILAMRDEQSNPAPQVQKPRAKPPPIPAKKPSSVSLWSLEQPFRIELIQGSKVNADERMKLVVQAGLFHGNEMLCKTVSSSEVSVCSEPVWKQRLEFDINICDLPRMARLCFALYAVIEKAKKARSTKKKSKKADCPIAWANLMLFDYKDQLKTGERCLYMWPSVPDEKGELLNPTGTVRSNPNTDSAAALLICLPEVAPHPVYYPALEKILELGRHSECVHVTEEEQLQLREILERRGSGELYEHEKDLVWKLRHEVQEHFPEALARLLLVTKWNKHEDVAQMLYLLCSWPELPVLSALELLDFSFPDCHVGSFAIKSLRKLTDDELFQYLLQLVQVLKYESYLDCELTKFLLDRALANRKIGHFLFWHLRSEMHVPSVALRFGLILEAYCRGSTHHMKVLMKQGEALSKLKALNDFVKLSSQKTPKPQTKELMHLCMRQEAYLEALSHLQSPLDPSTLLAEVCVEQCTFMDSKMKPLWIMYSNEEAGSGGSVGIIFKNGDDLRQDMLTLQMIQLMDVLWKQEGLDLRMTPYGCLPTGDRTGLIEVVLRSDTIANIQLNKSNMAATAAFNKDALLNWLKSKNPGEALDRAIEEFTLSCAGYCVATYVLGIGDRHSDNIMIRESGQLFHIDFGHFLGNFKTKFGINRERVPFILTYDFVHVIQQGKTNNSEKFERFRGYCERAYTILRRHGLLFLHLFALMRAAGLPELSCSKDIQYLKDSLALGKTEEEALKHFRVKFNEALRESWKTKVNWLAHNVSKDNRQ

Target: PI3-kinase p110-delta/p85-alpha (Homo sapiens, UniProt O00329)
Test: Inhibition of N-terminal His6-tagged recombinant full-length human p110delta/untagged recombinant full length p85alpha expressed in baculovirus infected Sf21 cells using phosphatidylinositol as substrate in presence of gamma-32P-ATP after 5 mins by thin layer chromatographic method

Structure (SMILES)	IC50
Cc1ccccc1-n1c(Cn2nc(-c3cc(O)cc(F)c3)c3c(N)ncnc32)cc2cccc(C)c2c1=O	< 100 nM
CC(=O)Nc1nc2ccc(-c3nn(Cc4cc5cccc(C)c5c(=O)n4-c4ccccc4C)c4ncnc(N)c34)cc2s1	< 100 nM
